# Measured values as given in patent publication US10278923B2, “Oral dosing of GLP-1 compounds” (Novo Nordisk A/S, priority 2013, dated 2019).
# Test: Pharmacokinetic study: variability in plasma concentration (% CV) after p.o. administration of SNAC tablet to Beagle dogs
# Details: for % CV AUC: p.o. tablet with 300 mg SNAC
# Description: The other monoclonal antibody, specific for an N-terminal epitope, was biotinylated. […] Illumination of the complex releases singlet oxygen atoms from the donor beads which channels into the acceptor beads and trigger chemiluminescence which was measured in the EnVision plate reader.
# The LC-MS system consisted of Waters Acquity UPLC system (Waters) consisting of an autosampler (Model Acq-SM), pump (Model Acq-BSM), column oven (Model Acq-SM), detector (Model Acq-TUV) and LTQ Orbitrap XL (Thermo Fisher). RP-HPLC separation was achieved using a linear gradient of acetonitrile in 0.1% formic acid using CSH C18 column (Waters, 1×150 mm) with a flow rate of 0.1 ml/min at 45° C.
# A pharmacokinetic study was carried out to determine plasma half-life of the GLP-1 peptides after p.o. administration to Beagle dogs.
# (§1) Dogs were administered p.o. GLP-1 peptide 1 in a SNAC formulation. Blood samples were drawn at predefined time points after dosing, and samples were analysed for concentration of the GLP-1 peptide. Based on these measurements plasma concentration versus time profile were plotted and a non-compartmental pharmacokinetic analysis of the data was performed. The variability in plasma concentration of the GLP-1 peptide was determined as % CV for AUC. The amount of SNAC in the tablet composition was 300 mg.
# as §1, with “Blood” for “Dogs were administered p.o. GLP-1 peptide 1 in a SNAC formulation. Blood”
substance,measurement,setting,value
"N^ε26{2-[2-(2-{2-[2-(2-{(S)-4Carboxy-4-[10-(4-carboxyphenoxy)decanoylamino]-butyrylamino}ethoxy)ethoxy]acetylamino}ethoxy)ethoxy]acetyl}, N^ε37-{2-[2-(2-{2-[2-(2-{(S)-4-carboxy-4-[10-(4-carboxyphenoxy)decanoylamino]butyrylamino}ethoxy)ethoxy]acetyl-amino}ethoxy)ethoxy]acetyl}-[Aib^8,Arg^34,Lys^37]GLP-1(7-37)-OH [GLP-1 peptide 2]","variability in plasma exposure, daily dosing compared to single dose",10 mg daily for 7 days vs single dose of 10 mg,significantly reduced
same,% CV AUC,"10 mg, single dose",67%
same,% CV AUC,10 mg/day for 7 days,33%
